# This is a selection; strong and weak results do not stand in their true shares. Activity calls are given as the source filed them. Cut-off read from the data, not from the text of the source: active = activation above about 50%; inconclusive = mostly about 30% to 49%; inactive = weaker than that.
# Experiment: qHTS of IL-2 Activators; note: 0% is about no effect
# Details: IL-2 activation reporter assay, cell-based qHTS; stronger effect = higher value; in transgenic mouse T cells; stimulated with anti-CD3/CD4/CD28 beads
# Description: The adaptive immune response against any infectious agent begins with the activation of an antigen specific T cell. This relatively rare and inert ("naive") T cell undergoes a massive proliferative expansion and differentiation process to generate sufficient number of potent pathogen-specific effector T cells. The effector T cells fight the infection by making cytokines and helping other cells to become fully armed as well. If any naive T cell has antigen receptors (TCRs) that can be activated by self peptides, then a variety of regulatory mechanisms kick in to prevent this cell from performing to its full potential. These processes collectively constitute the phenomenon of immunological tolerance and their failure leads to autoimmunity. One arm of tolerance involves generation of biochemical negative feedback downstream of the TCR (tuning). This is especially relevant to self antigens present in the body over long periods of time (chronic), which form the bulk of our proteome. […]
# 4 microL (750 cells/well) of unstimulated transgenic mouse T cells (columns 1-3,5-48) are dispensed into Aurora LoBase, black clear-bottom 1536-well assay plates; column 4 receives an identical concentration of transgenic memory T cells as a non-tolerant control. […] EGFP and DsRed signal are then detected using an Acumen eX3 Explorer fluorescent plate cytometer. […]
row,Structure (SMILES),activation
1,CCC(=O)N(c1ccccc1)C1(COC)CCN(CCn2nnn(CC)c2=O)CC1,inactive: 0.851%
2,CCC(=O)N(c1ccccc1)C1(COC)CCN(CCc2cccs2)CC1,inactive: 1.45%
